In US20070105759A1 (priority 2003, published 2007) one finds Ki data, which are given here for 26 molecules.

By UniProt entry, the sequences of proteins in these tests, tags left out.
UniProt P32245, whole entry: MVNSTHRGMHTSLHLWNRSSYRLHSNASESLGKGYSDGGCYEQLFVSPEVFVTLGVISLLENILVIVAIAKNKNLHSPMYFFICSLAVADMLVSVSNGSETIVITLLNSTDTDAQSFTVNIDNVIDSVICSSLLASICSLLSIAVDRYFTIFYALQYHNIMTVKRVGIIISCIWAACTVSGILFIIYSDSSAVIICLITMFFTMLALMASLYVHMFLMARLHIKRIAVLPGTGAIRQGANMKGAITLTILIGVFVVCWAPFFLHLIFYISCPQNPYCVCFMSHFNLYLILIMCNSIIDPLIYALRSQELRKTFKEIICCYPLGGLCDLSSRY

For the test, the target named is MC4 (Homo sapiens, UniProt P32245). The following applies: read-out: MC4 Ki.
As to `N=C(N)NCCCCC(=O)N[C@H]1CCSSC[C@@H](C(N)=O)NC(=O)[C@H](Cc2c[nH]c3ccccc23)NC(=O)[C@H](CCCNC(=N)N)NC(=O)[C@@H](Cc2ccccc2)NC(=O)[C@H](Cc2c[nH]cn2)NC1=O` [Compound No. 149, 5-guanidinovaleryl-cyclo[hCys-His-D-Phe-Arg-Trp-Cys]-NH2], the Ki (as a rule, the dissociation constant of the complex between target and ligand, obtained from inhibition or displacement) was 0.07 nM. For `N=C(N)NCCC[C@@H]1NC(=O)[C@@H](Cc2ccccc2)NC(=O)[C@H](Cc2c[nH]cn2)NC(=O)[C@@H](NS(=O)(=O)c2ccccc2)CCSSC[C@@H](C(N)=O)NC(=O)[C@H](Cc2c[nH]c3ccccc23)NC1=O` [Compound No. 150, N-phenylsulfonyl-cyclo[hCys-His-D-Phe-Arg-Trp-Cys]-NH2], the Ki worked out at 2.35 nM. Turning to `N=C(N)NCCC[C@@H]1NC(=O)[C@@H](Cc2ccccc2)NC(=O)[C@H](Cc2c[nH]cn2)NC(=O)[C@@H](NS(=O)(=O)c2ccc3ccccc3c2)CCSSC[C@@H](C(N)=O)NC(=O)[C@H](Cc2c[nH]c3ccccc23)NC1=O` [Compound No. 151, N-(2-naphthalenesulfonyl)-cyclo[hCys-His-D-Phe-Arg-Trp-Cys]-NH2], the inhibition constant Ki was 4.35 nM. `N=C(N)NCCC[C@@H]1NC(=O)[C@@H](Cc2ccccc2)NC(=O)[C@H](Cc2c[nH]cn2)NC(=O)[C@@H](NC(=O)CCC(=O)NS(=O)(=O)c2ccccc2)CCSSC[C@@H](C(N)=O)NC(=O)[C@H](Cc2c[nH]c3ccccc23)NC1=O` [Compound No. 152, N-(4-phenylsulfonamido-4-oxo-butyryl)-cyclo[hCys-His-D-Phe-Arg-Trp-Cys]-NH2]: the inhibitory constant (Ki) is 1.77 nM. `N=C(N)NCCC[C@@H]1NC(=O)[C@@H](Cc2ccccc2)NC(=O)[C@H](Cc2c[nH]cn2)NC(=O)[C@@H](NC(=O)[C@@H](N)CCCNC(=N)N)CCSSC[C@@H](C(N)=O)NC(=O)[C@H](Cc2c[nH]c3ccccc23)NC1=O` [Compound No. 153, Arg-cyclo[hCys-His-D-Phe-Arg-Trp-Cys]-NH2]: the Ki amounted to 0.1 nM. The figure for `N=C(N)NCCC[C@@H](N)C(=O)N[C@H]1CCSSC[C@@H](C(N)=O)NC(=O)[C@H](Cc2c[nH]c3ccccc23)NC(=O)[C@H](CCCNC(=N)N)NC(=O)[C@@H](Cc2ccccc2)NC(=O)[C@H](Cc2c[nH]cn2)NC1=O` [Compound No. 154, D-Arg-cyclo[hCys-His-D-Phe-Arg-Trp-Cys]-NH2] is 0.21 nM. Turning to `N=C(N)NCCC[C@@H]1NC(=O)[C@@H](Cc2ccccc2)NC(=O)[C@H](Cc2c[nH]cn2)NC(=O)[C@@H](NC(=O)[C@@H](N)CCCNC(=N)N)CCSSC[C@@H](C(=O)O)NC(=O)[C@H](Cc2c[nH]c3ccccc23)NC1=O` [Compound No. 155, Arg-cyclo[hCys-His-D-Phe-Arg-Trp-Cys]-OH], the Ki is 0.68 nM. As to `Cn1cnc(C[C@@H]2NC(=O)[C@@H](NC(=O)[C@@H](N)CCCNC(=N)N)CCSSC[C@@H](C(N)=O)NC(=O)[C@H](Cc3c[nH]c4ccccc34)NC(=O)[C@H](CCCNC(=N)N)NC(=O)[C@@H](Cc3ccccc3)NC2=O)c1` [Compound No. 156, Arg-cyclo[hCys-(1-Me-His)-D-Phe-Arg-Trp-Cys]-NH2], the Ki was determined as 1.31 nM. Take `Cn1cnc(C[C@H]2NC(=O)[C@@H](NC(=O)[C@@H](N)CCCNC(=N)N)CCSSC[C@@H](C(N)=O)NC(=O)[C@H](Cc3c[nH]c4ccccc34)NC(=O)[C@H](CCCNC(=N)N)NC(=O)[C@@H](Cc3ccccc3)NC2=O)c1` [Compound No. 157, Arg-cyclo[hCys-(1-Me-D-His)-D-Phe-Arg-Trp-Cys]-NH2]: the inhibition constant Ki is 28.4 nM. As for `CC(=O)N[C@@H](CCCNC(=N)N)C(=O)N[C@H]1CCSSC[C@@H](C(N)=O)NC(=O)[C@H](Cc2c[nH]c3ccccc23)NC(=O)[C@H](CCCNC(=N)N)NC(=O)[C@@H](Cc2ccccc2)NC(=O)[C@H](Cc2c[nH]cn2)NC1=O` [Compound No. 158, Ac-Arg-cyclo[hCys-His-D-Phe-Arg-Trp-Cys]-NH2], the Ki turned out to be 0.08 nM. For `CC(=O)N[C@@H](CCCNC(=N)N)C(=O)N[C@H]1CCSSC[C@@H](C(=O)O)NC(=O)[C@H](Cc2c[nH]c3ccccc23)NC(=O)[C@H](CCCNC(=N)N)NC(=O)[C@@H](Cc2ccccc2)NC(=O)[C@H](Cc2c[nH]cn2)NC1=O` [Compound No. 159, Ac-Arg-cyclo[hCys-His-D-Phe-Arg-Trp-Cys]-OH], the inhibition constant (Ki) worked out at 0.74 nM. The figure for `CCCC[C@H](NC(C)=O)C(=O)N[C@H]1CCSSC[C@@H](C(N)=O)NC(=O)[C@H](Cc2c[nH]c3ccccc23)NC(=O)[C@H](CCCNC(=N)N)NC(=O)[C@@H](Cc2ccccc2)NC(=O)[C@H](Cc2c[nH]cn2)NC1=O` [Compound No. 160, Ac-nLeu-cyclo[hCys-His-D-Phe-Arg-Trp-Cys]-NH2] is 0.05 nM; for `N=C(N)NCCC[C@@H]1NC(=O)[C@@H](Cc2ccccc2)NC(=O)[C@H](Cc2c[nH]cn2)NC(=O)[C@@H](NC(=O)CNS(=O)(=O)c2ccccc2)CCSSC[C@@H](C(N)=O)NC(=O)[C@H](Cc2c[nH]c3ccccc23)NC1=O` [Compound No. 161, phenylsulfonyl-Gly-cyclo[hCys-His-D-Phe-Arg-Trp-Cys]-NH2] it is 0.08 nM. `N=C(N)NCCC[C@H](NC(=O)[C@@H](N)Cc1ccc(O)cc1)C(=O)N[C@H]1CCSSC[C@@H](C(N)=O)NC(=O)[C@H](Cc2c[nH]c3ccccc23)NC(=O)[C@H](CCCNC(=N)N)NC(=O)[C@@H](Cc2ccccc2)NC(=O)[C@H](Cc2c[nH]cn2)NC1=O` [Compound No. 162, Tyr-Arg-cyclo[hCys-His-D-Phe-Arg-Trp-Cys]-NH2]: the Ki was 0.08 nM. With `N=C(N)NCCC[C@H](NC(=O)[C@@H](N)Cc1ccc(O)cc1)C(=O)N[C@H]1CCSSC[C@@H](C(=O)O)NC(=O)[C@H](Cc2c[nH]c3ccccc23)NC(=O)[C@H](CCCNC(=N)N)NC(=O)[C@@H](Cc2ccccc2)NC(=O)[C@H](Cc2c[nH]cn2)NC1=O` [Compound No. 163, Tyr-Arg-cyclo[hCys-His-D-Phe-Arg-Trp-Cys]-OH], the Ki is 2.28 nM. `CC(=O)N[C@@H](Cc1ccc(O)cc1)C(=O)N[C@@H](CCCNC(=N)N)C(=O)N[C@H]1CCSSC[C@@H](C(N)=O)NC(=O)[C@H](Cc2c[nH]c3ccccc23)NC(=O)[C@H](CCCNC(=N)N)NC(=O)[C@@H](Cc2ccccc2)NC(=O)[C@H](Cc2c[nH]cn2)NC1=O` [Compound No. 164, Ac-Tyr-Arg-cyclo[hCys-His-D-Phe-Arg-Trp-Cys]-NH2]: the inhibition constant (Ki) came out at 0.38 nM. As to `CC(=O)N[C@@H](Cc1ccc(O)cc1)C(=O)N[C@@H](CCCNC(=N)N)C(=O)N[C@H]1CCSSC[C@@H](C(=O)O)NC(=O)[C@H](Cc2c[nH]c3ccccc23)NC(=O)[C@H](CCCNC(=N)N)NC(=O)[C@@H](Cc2ccccc2)NC(=O)[C@H](Cc2c[nH]cn2)NC1=O` [Compound No. 165, Ac-Tyr-Arg-cyclo[hCys-His-D-Phe-Arg-Trp-Cys]-OH], the Ki is 1.45 nM. The figure for `CC(=O)N[C@@H](Cc1ccc(O)cc1)C(=O)N[C@@H](CCCNC(=N)N)C(=O)N[C@H]1CCSSC[C@@H](C(N)=O)NC(=O)[C@H](Cc2c[nH]c3ccccc23)NC(=O)[C@H](CCCNC(=N)N)NC(=O)[C@@H](Cc2ccccc2)NC(=O)[C@H](Cc2c[nH]cn2)NC(=O)[C@H](CCC(=O)O)NC1=O` [Compound No. 166, Ac-Tyr-Arg-cyclo[hCys-Glu-His-D-Phe-Arg-Trp-Cys]-NH2] is 25.1 nM; for `CC(=O)N[C@H]1CCSSC[C@@H](C(N)=O)NC(=O)[C@H](Cc2c[nH]c3ccccc23)NC(=O)[C@H](CCCNC(=N)N)NC(=O)[C@@H](CC2CCCCC2)NC(=O)[C@H](Cc2c[nH]cn2)NC1=O` [Compound No. 167, Ac-cyclo[hCys-His-(β-cyclohexyl-D-Ala)-Arg-Trp-Cys]-NH2] it is 93.1 nM; for `CC(=O)N[C@H]1CCSSC(C)(C)[C@@H](C(N)=O)NC(=O)[C@H](Cc2c[nH]c3ccccc23)NC(=O)[C@H](CCCNC(=N)N)NC(=O)[C@@H](Cc2ccccc2)NC(=O)[C@H](Cc2c[nH]cn2)NC1=O` [Compound No. 168, Ac-cyclo[hCys-His-D-Phe-Arg-Trp-penicillamine]-NH2] it is 1.35 nM. Consider `CC(=O)N[C@H]1CCSSC(C)(C)[C@@H](C(N)=O)NC(=O)[C@H](Cc2c[nH]c3ccccc23)NC(=O)[C@H](CCCNC(=N)N)NC(=O)[C@@H](Cc2ccc(Cl)cc2)NC(=O)[C@H](Cc2c[nH]cn2)NC1=O` [Compound No. 169, Ac-cyclo[hCys-His-(4-Cl-D-Phe)-Arg-Trp-penicillamine]-NH2], for which the inhibition constant Ki is 0.03 nM. Regarding `CC1(C)SSCC[C@H](NC(=O)C2CCCC2)C(=O)N[C@@H](Cc2c[nH]cn2)C(=O)N[C@H](Cc2ccccc2)C(=O)N[C@@H](CCCNC(=N)N)C(=O)N[C@@H](Cc2c[nH]c3ccccc23)C(=O)N[C@@H]1C(N)=O` [Compound No. 171, N-cyclopentanecarbonyl-cyclo[hCys-His-D-Phe-Arg-Trp-penicillamine]-NH2], the Ki worked out at 0.1 nM. For the molecule `CC1(C)SSCC[C@H](NC(=O)C2CCCCC2)C(=O)N[C@@H](Cc2c[nH]cn2)C(=O)N[C@H](Cc2ccccc2)C(=O)N[C@@H](CCCNC(=N)N)C(=O)N[C@@H](Cc2c[nH]c3ccccc23)C(=O)N[C@@H]1C(N)=O` [Compound No. 172, N-cyclohexanecarbonyl-cyclo[hCys-His-D-Phe-Arg-Trp-penicillamine]-NH2], the inhibition constant (Ki) turned out to be 0.15 nM.

For `CC1(C)SSCC[C@H](NS(=O)(=O)c2ccccc2)C(=O)N[C@@H](Cc2c[nH]cn2)C(=O)N[C@H](Cc2ccccc2)C(=O)N[C@@H](CCCNC(=N)N)C(=O)N[C@@H](Cc2c[nH]c3ccccc23)C(=O)N[C@@H]1C(N)=O` [Compound No. 175, N-phenylsulfonyl-cyclo[hCys-His-D-Phe-Arg-Trp-penicillamine]-NH2], the Ki was 1.29 nM.

Take `CC1(C)SSCC[C@H](NC(=O)CCCNS(=O)(=O)c2ccccc2)C(=O)N[C@@H](Cc2c[nH]cn2)C(=O)N[C@H](Cc2ccccc2)C(=O)N[C@@H](CCCNC(=N)N)C(=O)N[C@@H](Cc2c[nH]c3ccccc23)C(=O)N[C@@H]1C(N)=O` [Compound No. 176, (4-benzenesulfonamide)butyryl-cyclo[hCys-His-D-Phe-Arg-Trp-penicillamine]-NH2]: the Ki is 0.49 nM.

Take `N=C(N)NCCC[C@@H]1NC(=O)[C@@H](Cc2ccccc2)NC(=O)[C@H](Cc2c[nH]cn2)NC(=O)CCSSCC[C@@H](C(N)=O)NC(=O)[C@H](Cc2c[nH]c3ccccc23)NC1=O` [Compound No. 179, cyclo[3-thiopropionyl-His-D-Phe-Arg-Trp-hCys]-NH2]: the Ki was determined as 93.5 nM.
